Data as given in patent publication US20240301055A1 (IMMUTEP PARC CLUB ORSAY, published 2024).

Target: T1, human LAG-3 protein (hLAG-3, CD223) on hLAG-3-transfected CHO cells or on activated human T cells (human, UniProt P18627 23-525)
T1 sequence (looked up): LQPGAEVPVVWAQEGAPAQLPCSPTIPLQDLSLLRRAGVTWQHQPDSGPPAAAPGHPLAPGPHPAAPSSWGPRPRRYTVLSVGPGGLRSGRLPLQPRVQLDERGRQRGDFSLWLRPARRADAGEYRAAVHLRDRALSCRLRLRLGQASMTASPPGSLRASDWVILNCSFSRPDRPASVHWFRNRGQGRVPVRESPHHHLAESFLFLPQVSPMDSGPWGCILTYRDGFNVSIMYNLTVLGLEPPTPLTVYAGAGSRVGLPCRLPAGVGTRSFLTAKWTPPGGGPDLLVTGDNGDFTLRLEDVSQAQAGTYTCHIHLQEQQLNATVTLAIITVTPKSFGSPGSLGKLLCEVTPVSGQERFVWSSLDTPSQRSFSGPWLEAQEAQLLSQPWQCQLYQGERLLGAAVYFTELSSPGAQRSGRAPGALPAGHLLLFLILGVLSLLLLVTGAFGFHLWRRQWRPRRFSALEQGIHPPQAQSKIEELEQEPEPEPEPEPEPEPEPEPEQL
Experiment: cell-based or functional assay

B1: IMP731 (chimeric A9H12 with human IgG1 Fc region and human Ckappa) (antibody, V domains shown)
VH: QVQLKESGPGLVAPSQSLSITCTVSGFSLTAYGVNWVRQPPGKGLEWLGMIWDDGSTDYNSALKSRLSISKDNSKSQVFLKMNSLQTDDTARYYCAREGDVAFDYWGQGTTLTVSS
VL: DIVMTQSPSSLAVSVGQKVTMSCKSSQSLLNGSNQKNYLAWYQQKPGQSPKLLVYFASTRDSGVPDRFIGSGSGTDFTLTISSVQAEDLADYFCLQHFGTPPTFGGGTKLEIKR
  ADCC on CMV peptide-activated human T cells, EC50 for CD4+ T cells: 1 ng/mL
  ADCC on CMV peptide-activated human T cells, EC50 for CD8+ T cells: 0.7 ng/mL
